## Antibody variant affinities, Ab-14 light chain, assay 1

Source: Engelhart et al. 2022 (doi:10.1038/s41597-022-01779-4), MIT Lincoln Laboratory and A-Alpha Bio; data file from the FLAb repository.

Antigen: PDVDLGDISGINAS, a 14-residue peptide of the SARS-CoV-2 spike HR2 region.

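The starting antibody came from a phage panning campaign against this peptide. In library AAYL50, one, two or three CDR residues were substituted; doubles and triples were drawn at random. The scFvs were displayed on barcoded MATa yeast, the peptide on MATalpha yeast. After mating in shaken culture at 30 °C for 16 h, diploids were selected and their barcode pairs sequenced. Scores were corrected for input abundance and mapped to Kd with protein pairs of known affinity run in the same pool. The assay was run in three technical replicates.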

Parent: Ab-14, a human scFv built as VH, a 15-residue (Gly4Ser)3 linker, VL. Only the CDRs of the light chain vary.
VH: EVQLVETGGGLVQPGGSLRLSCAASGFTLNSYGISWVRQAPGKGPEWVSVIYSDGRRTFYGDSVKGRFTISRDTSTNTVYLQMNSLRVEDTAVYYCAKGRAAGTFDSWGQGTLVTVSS
VL: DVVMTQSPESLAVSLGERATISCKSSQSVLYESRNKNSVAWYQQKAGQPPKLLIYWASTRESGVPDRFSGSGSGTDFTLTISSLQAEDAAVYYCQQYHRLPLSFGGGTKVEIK

The parent's light chain CDRs are KSSQSVLYESRNKNSVA, WASTRES, QQYHRLPLS; each variant's own CDRs replace them letter for letter. Values are log10 of the apparent Kd in nM; lower means stronger binding. "ND" means that the variant was in the library but no mating with the target was seen in that replicate; the authors take this as a sign of poor binding, and no number exists. Empty control strains, which show no peptide, gave a signal in 18% of pairings with library AAYL50; the median was 4.19 and 95% of these signals were weaker than 2.99. No background was subtracted. The control count says in how many pairings with the empty strains this scFv gave a signal, with their mean in brackets.

| CDR-L1 | CDR-L2 | CDR-L3 | replicates, log10 nM | signal with controls |
|---|---|---|---|---|
| KSSQSVLYESRVKNSVA | WAVTRES | QQWHRLPLS | 2.64 2.73 ND | 6 of 9 (4.31) |
| KSSQSVMYESRNKNSVA | WASTRPS | QQYHRLPLS | 1.25 1.64 1.66 | 1 of 9 (4.77) |
| KSSQSVLYESRNKNSVA | WASVRES | QQYHALPLS | 0.99 1.13 0.91 | 1 of 9 (3.81) |
| KSSQPVLYESRNKNSVA | WASTDES | QYYHRLPLS | ND ND ND | 0 of 9 |
| KSSQSVLDESRNKNSVA | WASTREV | LQYHRLPLS | ND ND ND | 0 of 9 |
| KSSQSVMYESRNKNSVA | LASTRES | AQYHRLPLS | 2.66 ND ND | 1 of 9 (3.57) |
| KSSQSVLYESRNKNSVA | WASMRES | QQYGRLPLS | 4.85 3.27 5.74 | 1 of 9 (3.49) |
| KSSQSVLYESRCHNSVA | WASTRES | SQYHRLPLS | 1.12 1.47 1.70 | 1 of 9 (3.41) |
| KHSSSVLYESRNKNSVA | WASERES | QQYHRLPLS | 0.83 0.92 0.91 | 0 of 9 |
| KSSQSVLYESRNKNSVA | WASTREQ | QQFYRLPLS | 1.74 1.55 1.56 | 3 of 9 (3.60) |
| TSSQSVLYESRNKNSVR | WASTRES | QQGHRLPLS | 4.39 4.51 ND | 4 of 9 (4.27) |
| KSSQSVLYPSRNKNSVF | WASTRES | QQYHRLPLS | ND 5.26 ND | 0 of 9 |
| KSSQSVLYESRNKNNVA | WASDRES | QQGHRLPLS | 2.49 2.51 2.21 | 3 of 9 (4.53) |
| KSSQSVLVESRNKNSVA | WPSTRES | QQYHHLPLS | 4.07 ND ND | 0 of 9 |
| KSSQFVTYESRNKNSVA | WASTRES | QQYHRLPLS | 1.61 1.65 1.94 | 0 of 9 |
| KSSQSVLYESRNVNSVA | WASTRES | QQYHRLPLS | ND ND ND | 1 of 9 (4.81) |
| KSSQSVLYETRNKNSVA | WASTTES | QQYHRLPLS | 3.15 3.14 4.38 | 3 of 9 (3.53) |
| KSLQSVLYESANKNSVA | WASTRES | QQYHRLPLS | ND ND ND | 0 of 9 |
| KSSQSVLYESRNKNSVL | WASTMES | QQYHRLPAS | ND ND ND | 0 of 9 |
| KSSQQVLYESRNKNSVA | WASTRES | QQYHMLPLY | ND ND ND | 2 of 9 (3.60) |
| KSSQGVPYESRNKNSVA | WASTRES | QQYHRLPLS | 0.48 0.59 0.56 | 4 of 9 (4.17) |
| KSSQSVLYEVRNKKSVA | WASTRES | QQYHRLCLS | ND ND ND | 0 of 9 |
| MSSQSVLYESRNKNSYA | WASTREE | QQYHRLPLS | 1.58 1.53 1.48 | 4 of 9 (4.67) |
| KSSQSVLYESRNKNSVR | WASTRTS | QQYTRLPLS | ND ND 3.13 | 1 of 9 (4.80) |
| KSSQSVLYESRNKNSVA | WASTWEA | QQYHRLPLE | ND ND 3.82 | 0 of 9 |
| WSSQSVLYESRNKNSVA | VASTRES | QQPHRLPLS | ND 2.95 ND | 1 of 9 (4.55) |
| KSSQSVLYESRNINKVA | WASTREP | QQYHRLPLS | 2.78 3.52 3.46 | 0 of 9 |
| NSSQSDLYESRNKNSVA | WASTRES | QQYHRCPLS | 6.00 3.76 ND | 4 of 9 (4.40) |
| KSSQSVLYESRNKNSVA | WASTRES | QYYHALPLS | ND ND 3.59 | 0 of 9 |
| KSSQSPLYESRNKNSVA | WASTRES | QQYHRMILS | 3.17 ND 3.49 | 3 of 9 (3.61) |
| KSSQSVLYESRNKNSVA | IASTRES | VQYHRLPDS | ND ND ND | 1 of 9 (3.49) |
| KSSQSVDYESRNKNSVA | WASTRGS | QQYHRLILS | 2.83 2.20 3.01 | 2 of 9 (4.70) |
| KSSDSVLYESRNKNIVA | KASTRES | QQYHRLPLS | -0.13 0.25 -0.02 | 2 of 9 (4.91) |
| KSSQSVLYESRNENSVA | WASTLES | QQYHRLPGS | ND 3.69 ND | 3 of 9 (4.44) |
| KSSQSVLYESRNKNSVA | WASTRES | QQGHIKPLS | 0.50 0.77 1.11 | 1 of 9 (3.63) |
| KISQSVLYESRNKNSVA | WASTRES | QQLHRLPIS | ND ND ND | 1 of 9 (4.11) |
| KSDQSYLYESRNKLSVA | WASTRES | QQYHRLPLS | 3.20 1.74 2.47 | 0 of 9 |
| KSSQSVLWESRNKNSLA | WASTRES | QQVHRLPLS | 3.19 2.99 3.08 | 3 of 9 (4.38) |

Excerpt, the first 5 entries:

CDR-L1,CDR-L2,CDR-L3,"replicates, log10 nM",signal with controls
KSSQSVLYESRVKNSVA,WAVTRES,QQWHRLPLS,2.64 2.73 ND,6 of 9 (4.31)
KSSQSVMYESRNKNSVA,WASTRPS,QQYHRLPLS,1.25 1.64 1.66,1 of 9 (4.77)
KSSQSVLYESRNKNSVA,WASVRES,QQYHALPLS,0.99 1.13 0.91,1 of 9 (3.81)
KSSQPVLYESRNKNSVA,WASTDES,QYYHRLPLS,ND ND ND,0 of 9
KSSQSVLDESRNKNSVA,WASTREV,LQYHRLPLS,ND ND ND,0 of 9